Assay results published in ChEMBL document CHEMBL5723035, “Affinity Biochemical Literature for EUbOPEN Chemogenomic Library” (2024).

Protein sequences, listed by entry. Tags and fused reporters are not part of them.
UniProt Q15910, whole entry: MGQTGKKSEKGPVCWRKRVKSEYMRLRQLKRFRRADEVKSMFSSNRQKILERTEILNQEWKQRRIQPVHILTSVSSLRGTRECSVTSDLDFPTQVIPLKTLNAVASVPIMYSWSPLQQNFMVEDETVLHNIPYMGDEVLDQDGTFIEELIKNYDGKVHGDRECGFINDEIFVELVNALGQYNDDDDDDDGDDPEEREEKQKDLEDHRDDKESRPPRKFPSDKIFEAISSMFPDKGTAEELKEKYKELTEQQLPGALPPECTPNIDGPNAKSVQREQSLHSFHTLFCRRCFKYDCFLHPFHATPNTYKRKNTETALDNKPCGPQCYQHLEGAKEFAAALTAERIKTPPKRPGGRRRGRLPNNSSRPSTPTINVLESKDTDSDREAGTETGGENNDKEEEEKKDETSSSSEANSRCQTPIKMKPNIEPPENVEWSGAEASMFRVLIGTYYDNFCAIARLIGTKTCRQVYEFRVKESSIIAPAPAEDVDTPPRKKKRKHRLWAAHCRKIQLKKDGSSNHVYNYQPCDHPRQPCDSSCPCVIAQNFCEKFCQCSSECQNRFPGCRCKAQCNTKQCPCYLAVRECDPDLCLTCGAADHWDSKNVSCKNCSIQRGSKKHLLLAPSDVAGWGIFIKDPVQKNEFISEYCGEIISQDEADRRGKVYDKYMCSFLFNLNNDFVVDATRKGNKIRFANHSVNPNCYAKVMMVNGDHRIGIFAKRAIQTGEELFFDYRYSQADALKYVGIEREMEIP
UniProt P31645, whole entry: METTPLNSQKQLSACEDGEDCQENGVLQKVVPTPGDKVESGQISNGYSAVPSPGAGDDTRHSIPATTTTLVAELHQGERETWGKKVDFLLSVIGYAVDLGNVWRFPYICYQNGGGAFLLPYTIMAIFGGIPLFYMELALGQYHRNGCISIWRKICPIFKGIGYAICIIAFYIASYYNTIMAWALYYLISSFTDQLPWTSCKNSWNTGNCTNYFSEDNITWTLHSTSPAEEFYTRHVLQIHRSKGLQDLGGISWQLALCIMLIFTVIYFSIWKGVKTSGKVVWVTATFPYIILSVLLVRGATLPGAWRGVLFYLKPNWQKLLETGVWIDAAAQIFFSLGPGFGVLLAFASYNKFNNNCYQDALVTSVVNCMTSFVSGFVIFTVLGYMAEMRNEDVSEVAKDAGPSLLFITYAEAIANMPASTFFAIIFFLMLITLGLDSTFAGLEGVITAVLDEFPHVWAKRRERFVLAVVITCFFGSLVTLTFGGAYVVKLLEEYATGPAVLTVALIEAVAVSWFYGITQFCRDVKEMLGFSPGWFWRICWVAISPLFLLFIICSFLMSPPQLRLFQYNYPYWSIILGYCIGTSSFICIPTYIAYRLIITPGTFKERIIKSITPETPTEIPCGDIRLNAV

Assays:
[1] = target: T1, Histone-lysine N-methyltransferase EZH2 (Homo sapiens, UniProt Q15910); assay: Affinity Biochemical interaction: (ELISA-based protein substrate methylation assay) EUB0002228a EZH2; assay type: functional
[2] = target: T1, Histone-lysine N-methyltransferase EZH2
Caspase-6 [3] = target: T2, Caspase-6 (Homo sapiens, UniProt P55212)
T2 sequence (P55212 whole entry): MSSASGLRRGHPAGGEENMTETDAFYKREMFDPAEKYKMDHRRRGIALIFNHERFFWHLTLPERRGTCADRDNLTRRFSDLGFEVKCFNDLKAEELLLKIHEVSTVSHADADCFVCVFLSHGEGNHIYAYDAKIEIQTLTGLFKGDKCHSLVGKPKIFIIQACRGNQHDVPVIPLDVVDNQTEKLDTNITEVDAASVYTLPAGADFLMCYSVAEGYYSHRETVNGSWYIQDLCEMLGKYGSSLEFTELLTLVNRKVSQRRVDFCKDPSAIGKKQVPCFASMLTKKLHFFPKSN

Caspase-6 [4] = target: T2, Caspase-6; remark: listed apart in the source
[5] = target: Sodium-dependent serotonin transporter (Homo sapiens, UniProt P31645)

CCN(c1cc(C#CCN2CCOCC2)cc(C(=O)NCc2c(C)cc(C)[nH]c2=O)c1C)[C@H]1CC[C@H](N(C)CCOC)CC1
IC50 [1]: 6 nM | Ki [2]: < 3 nM

CC[C@H](C)[C@H](NC(=O)[C@H](CCC(=O)O)NC(=O)[C@@H](NC(C)=O)C(C)C)C(=O)N[C@H](C=O)CC(=O)O
IC50 (Caspase-6 [3]): 8.9 nM | IC50 (Caspase-6 [4]): 16.2 nM

CN(C)CC(c1ccc(O)cc1)C1(O)CCCCC1 (stereo not given)
Ki [5]: 40.2 nM
